{
  "source": "patent US11485745B2",
  "tested_on": "A2780 cells",
  "assay": "In-Vitro Cell Proliferation Assay",
  "type": "cell-based",
  "conditions": "read-out: Cell Proliferation (IC50), 72 hours, SRB",
  "data": [
    {"smiles": "Cc1nn(C(C)C)c(C)c1C(=O)N1CCC2(CC1)CC2CNC(=O)c1cc2ccncc2o1", "note": "(stereo not shown)", "values": [
      {"measurement": "IC50", "result": 11.7, "unit": "nM"}
    ]}
  ]
}
